Ab-95 light chain CDR variants: yeast mating affinities

The target is the same throughout: PDVDLGDISGINAS, from the HR2 region of SARS-CoV-2 spike.

Parent: Ab-95, a human scFv built as VH, a (GGGGS)3 linker, VL. Only the CDRs of the light chain vary.
VH: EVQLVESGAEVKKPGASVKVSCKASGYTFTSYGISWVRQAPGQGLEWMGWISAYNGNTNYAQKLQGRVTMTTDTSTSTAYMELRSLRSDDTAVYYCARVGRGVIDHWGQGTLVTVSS
VL: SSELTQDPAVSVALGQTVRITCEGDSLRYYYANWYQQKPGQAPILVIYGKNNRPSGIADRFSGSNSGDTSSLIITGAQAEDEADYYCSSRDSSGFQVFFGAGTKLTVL

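The parent was found by panning a naive human phage display library on the peptide. In library AAYL52, one, two or three CDR residues were substituted; doubles and triples were drawn at random. In AlphaSeq, yeast of one mating type display the scFv and yeast of the other type display the target. The frequency of each diploid, read from paired DNA barcodes, reflects how well the two displayed proteins bind. A regression on co-assayed BCL2-family reference pairs converts the normalised counts of each replicate to an apparent Kd. Each pool was mated in three replicate cultures.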

Each variant is given by its three light chain CDRs, as the data file delimits them; those of the parent are EGDSLRYYYAN, GKNNRPS, SSRDSSGFQVF. Affinities are written as log10 Kd with Kd in nM; a lower number is a better binder. Replicates are averaged; those with no signal do not enter the mean. "ND" means that the variant was in the library but no mating with the target was seen in that replicate; the authors take this as a sign of poor binding, and no number exists. Entries are sorted by rising average, undetected variants last. As a blank, each scFv also met three strains without target: over library AAYL52, 28% of these pairings were detected, typically at 3.91 and seldom below 2.90.

| # | CDR-L1 | CDR-L2 | CDR-L3 | log10 Kd (nM) by replicate | mean, log10 nM |
|---|---|---|---|---|---|
| 1 | EGVSLIYNYAN | GKNNRPS | SSRDSSGFQVF | 1.25 0.89 0.71 | 0.95 |
| 2 | EGDSLRYYPAN | GKNNRPS | ESRDDSGFQVF | 1.35 1.66 0.48 | 1.16 |
| 3 | EGDSLRYYQAN | GKNSRPY | SSRDSSGFQVF | 1.51 1.38 1.08 | 1.33 |
| 4 | NGDSLRYSYAN | GKNNRPS | SSNDSSGFQVF | 2.44 2.38 2.11 | 2.31 |
| 5 | GGDSLRYYYAN | GKNKRPS | SSRDSSGFQMF | 2.64 2.43 2.21 | 2.43 |
| 6 | EGDSLRYYEAN | GKNNRPS | SSRDSYGFQTF | 2.88 2.74 ND | 2.81 |
| 7 | EGDSLRYYYAN | GKNNRKS | SSRDWSIFQVF | 2.90 2.74 ND | 2.82 |
| 8 | EGDSMRYYYAN | GKNNRPS | SSRDSIGFQQF | 3.15 3.04 ND | 3.10 |
| 9 | EGDSLRYYYAN | YFNNRPS | SSRDSSGKQVF | 3.03 3.18 ND | 3.11 |
| 10 | EGDSLRYYYAN | GANNRPS | SSRDSSGFTVF | 3.00 3.61 2.72 | 3.11 |
| 11 | EGDSERYYYAN | GNNNRPS | SSRDSSGFQVF | 3.30 2.99 3.14 | 3.14 |
| 12 | EGDSLRYYYAN | GKNNRPS | SSCDSWGFRVF | 4.34 2.45 2.74 | 3.18 |
| 13 | EGDPLRYYYAG | GKNNRPS | SSRDSSGRQVF | 3.67 3.03 2.89 | 3.20 |
| 14 | EGDSLRYYYAN | GKFNRPS | SSRTSSVFQVF | 3.27 3.17 ND | 3.22 |
| 15 | EGDSLRYYYAE | GKNNRPS | SSRQFSGFQVF | 3.79 2.79 3.49 | 3.36 |
| 16 | EGDSLRYYYAN | GSNMRPP | SSRDSSGFQVF | 3.53 3.07 3.71 | 3.44 |
| 17 | EGDSLRYYYAN | GKNLLPS | SSRDSSHFQVF | 4.26 ND 2.64 | 3.45 |
| 18 | EGDSLRYYYDN | GTNNRPS | SSRDSFGFQVF | ND 3.47 ND | 3.47 |
| 19 | EGDSLRYYYAN | KKNNRPS | SSRHSSGFQVG | 3.30 3.05 4.16 | 3.50 |
| 20 | EGDSERYTYAN | GKNNRPS | SSRDSSGFEVF | 3.46 3.19 3.91 | 3.52 |
| 21 | EGDSLRYCYAN | GKNNRNS | SSRDSQGFQVF | ND 4.52 2.57 | 3.55 |
| 22 | DGDSLRYYYAN | GKNNLPD | SSRDSSGFQVF | 5.05 3.02 2.81 | 3.63 |
| 23 | EFDSLRYYYAN | GKYNRPS | SPRDSSGFQVF | ND ND 3.71 | 3.71 |
| 24 | EKDSLRYVYAN | GKNNRPS | SSRDSSGFQVF | 3.18 4.24 ND | 3.71 |
| 25 | FGDSHRYYYAN | QKNNRPS | SSRDSSGFQVF | 3.84 ND ND | 3.84 |
| 26 | EGDSLRYYYAN | GKNNRRS | SSRDLSGFNVF | 3.98 3.78 3.97 | 3.91 |
| 27 | EGDSLRYYSAN | GKNNRNS | SSTDSSGFQVF | 3.91 3.76 4.16 | 3.94 |
| 28 | EGDSLQYYYAN | GKNNRPS | SSRDSRFFQVF | 4.11 3.16 4.59 | 3.95 |
| 29 | EGDSLRAYYTN | GKNNQPS | SSRDSSGFQVF | 4.69 3.45 ND | 4.07 |
| 30 | EGDSLRSYYAN | KKNNRPS | SSRDSSGFMVF | 3.83 4.92 4.30 | 4.35 |
| 31 | EGDSLRYYYAN | GKCNAPS | SSPDSSGFQVF | 5.21 3.74 ND | 4.47 |
| 32 | EGDSLRYLYAN | GKNNFPS | SSRRSSGFQVF | 4.30 5.06 ND | 4.68 |
| 33 | EGDSLRYYYAN | GKNNRPS | SSRASSAFQVF | 4.79 ND ND | 4.79 |
| 34 | EGDSLRYYYAT | MKNNRIS | SSRDSSGFQVF | 5.29 ND ND | 5.29 |
| 35 | EGDSLRDYYAN | YKNNRPS | RSRDSSGFQVF | 5.45 ND ND | 5.45 |
| 36 | EGDSVRYYYAN | RKNNRPS | SSRDSSGRQVF | 5.59 5.68 ND | 5.63 |
| 37 | EGDSLRNYYAS | GKNNRPS | SSRLSSGFQVF | ND ND ND | ND |
| 38 | EGDSLRYYYYN | GKNNRPS | SSRDSSGFQVV | ND ND ND | ND |
| 39 | EGDSLPYYYAN | GKNMRDS | SSRDSSGFQVF | ND ND ND | ND |
| 40 | EGDSLRYYYAN | GKNNRPM | KSRFSSGFQVF | ND ND ND | ND |
| 41 | EGDSLRYYYAN | HRNNRPS | SQRDSSGFQVF | ND ND ND | ND |
| 42 | EGDSLFYYYAN | GKNNCPS | SSRDSSGEQVF | ND ND ND | ND |
| 43 | EGDSLRYYYAN | WNNNRPS | SSRWSSGFQVF | ND ND ND | ND |
| 44 | EGDSLRYYYAN | YKNNRPA | SSRDSSGYQVF | ND ND ND | ND |

The 7 strongest on average among those seen in every replicate, once more:

CDR-L1	CDR-L2	CDR-L3	log10 Kd (nM) by replicate	mean, log10 nM
EGVSLIYNYAN	GKNNRPS	SSRDSSGFQVF	1.25 0.89 0.71	0.95
EGDSLRYYPAN	GKNNRPS	ESRDDSGFQVF	1.35 1.66 0.48	1.16
EGDSLRYYQAN	GKNSRPY	SSRDSSGFQVF	1.51 1.38 1.08	1.33
NGDSLRYSYAN	GKNNRPS	SSNDSSGFQVF	2.44 2.38 2.11	2.31
GGDSLRYYYAN	GKNKRPS	SSRDSSGFQMF	2.64 2.43 2.21	2.43
EGDSLRYYYAN	GANNRPS	SSRDSSGFTVF	3.00 3.61 2.72	3.11
EGDSERYYYAN	GNNNRPS	SSRDSSGFQVF	3.30 2.99 3.14	3.14

Parent in this assay: reference entry 2.31, copy in this library 2.25.

The measurements come from Engelhart et al. 2022 (doi:10.1038/s41597-022-01779-4) through the FLAb antibody collection.